Earlier results as cited in patent US20100189807A1, “Use of an ozone / oxygen mixture as a primary anticancer therapy via intraperitoneal insufflation” (priority 2009, published 2010).

System: auricular VX2 tumors
Conditions: perilesional injection; cited from earlier work

In the case of “IL-2: IL-2, perilesional injection, literature comparison”, the “efficiency of regression of auricular VX2 tumors” value is listed as 25.0%.
